Source: US20230263907A1, “PREPARATION OF SOLID CYCLODEXTRIN COMPLEXES FOR OPHTHALMIC ACTIVE PHARMACEUTICAL INGREDIENT DELIVERY” (OCULIS SA, priority 2020, published 2023)

Chains of the proteins cited; added tags and fusions are not shown. Residues count along the entry.
UniProt P35968, 20-1356, species assumed: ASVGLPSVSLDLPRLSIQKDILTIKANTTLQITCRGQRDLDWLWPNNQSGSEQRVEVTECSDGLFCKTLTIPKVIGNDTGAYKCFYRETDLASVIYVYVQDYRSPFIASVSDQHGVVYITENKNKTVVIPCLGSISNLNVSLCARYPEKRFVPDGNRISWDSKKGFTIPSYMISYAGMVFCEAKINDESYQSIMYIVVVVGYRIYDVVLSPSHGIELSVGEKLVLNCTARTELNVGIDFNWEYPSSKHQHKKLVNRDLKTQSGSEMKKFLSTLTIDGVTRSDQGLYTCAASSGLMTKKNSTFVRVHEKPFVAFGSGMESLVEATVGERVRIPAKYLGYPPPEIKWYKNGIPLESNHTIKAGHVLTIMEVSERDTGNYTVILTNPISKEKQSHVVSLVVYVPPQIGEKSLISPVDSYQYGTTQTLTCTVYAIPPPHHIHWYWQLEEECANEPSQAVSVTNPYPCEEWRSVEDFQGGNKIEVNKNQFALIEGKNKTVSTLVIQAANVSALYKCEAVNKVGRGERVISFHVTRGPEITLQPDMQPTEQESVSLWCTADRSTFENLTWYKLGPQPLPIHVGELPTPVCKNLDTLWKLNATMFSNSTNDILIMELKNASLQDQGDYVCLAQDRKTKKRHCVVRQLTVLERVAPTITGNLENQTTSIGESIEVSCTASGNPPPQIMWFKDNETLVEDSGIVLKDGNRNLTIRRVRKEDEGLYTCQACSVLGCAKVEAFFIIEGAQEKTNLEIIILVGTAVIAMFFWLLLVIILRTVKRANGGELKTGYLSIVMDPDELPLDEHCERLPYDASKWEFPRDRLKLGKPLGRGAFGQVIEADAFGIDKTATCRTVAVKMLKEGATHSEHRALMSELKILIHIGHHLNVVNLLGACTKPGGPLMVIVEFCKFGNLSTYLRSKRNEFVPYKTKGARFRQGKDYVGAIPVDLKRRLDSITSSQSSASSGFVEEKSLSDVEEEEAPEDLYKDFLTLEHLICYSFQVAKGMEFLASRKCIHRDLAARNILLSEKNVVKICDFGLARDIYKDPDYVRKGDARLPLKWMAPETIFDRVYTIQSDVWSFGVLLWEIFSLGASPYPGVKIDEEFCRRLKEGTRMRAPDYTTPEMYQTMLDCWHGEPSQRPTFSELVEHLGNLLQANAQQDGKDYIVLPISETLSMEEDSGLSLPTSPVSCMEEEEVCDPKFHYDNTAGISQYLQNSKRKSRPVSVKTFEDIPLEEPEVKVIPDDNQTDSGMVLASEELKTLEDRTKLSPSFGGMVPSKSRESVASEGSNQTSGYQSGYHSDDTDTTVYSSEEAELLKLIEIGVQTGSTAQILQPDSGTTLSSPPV

Biological target: VEGFR2 (Homo sapiens, UniProt P35968)
Assay: VEGFR2 IC50 values obtained from Selleckchem, Tocris Bioscience and TargetMol

Structure (SMILES) | EGFR/VEGFR2 ratio
COCCNCc1ccc(-c2cc3nccc(Oc4ccc(NC(=O)C5(C(=O)Nc6ccc(F)cc6)CC5)cc4F)c3s2)nc1 [Sitravatinib] | 1000
O=C(Nc1cc(Oc2cc(F)c(NC(=O)C3(C(=O)Nc4ccc(F)cc4)CC3)cc2F)ccn1)C1CC1 [Altiratinib] | 360
